Data: US20260308536A1, “NOVEL URICASE VARIANTS AND METHODS OF USE THEREOF” (priority 2023, published 2026)

Test system: O=c1[nH]c(=O)c2[nH]c(=O)[nH]c2[nH]1
Assay: purified protein, by the assay type
Conditions: other: role: substrate; wild type Aspergillus flavus uricase (WT); pH 10.5; 25.0 °C

“Aspergillus flavus uricase, wild type, SEQ ID NO: 7 (Aspergillus flavus)” showed a kcat of 1.23 ± 0.04 s⁻¹.
